Measurements as given in US20100003195A1 (published 2010).

The chains behind the UniProt entries cited, without tags or fusion partners. Residues count along the entry.
UniProt P35968, 20-764, stated change not applied: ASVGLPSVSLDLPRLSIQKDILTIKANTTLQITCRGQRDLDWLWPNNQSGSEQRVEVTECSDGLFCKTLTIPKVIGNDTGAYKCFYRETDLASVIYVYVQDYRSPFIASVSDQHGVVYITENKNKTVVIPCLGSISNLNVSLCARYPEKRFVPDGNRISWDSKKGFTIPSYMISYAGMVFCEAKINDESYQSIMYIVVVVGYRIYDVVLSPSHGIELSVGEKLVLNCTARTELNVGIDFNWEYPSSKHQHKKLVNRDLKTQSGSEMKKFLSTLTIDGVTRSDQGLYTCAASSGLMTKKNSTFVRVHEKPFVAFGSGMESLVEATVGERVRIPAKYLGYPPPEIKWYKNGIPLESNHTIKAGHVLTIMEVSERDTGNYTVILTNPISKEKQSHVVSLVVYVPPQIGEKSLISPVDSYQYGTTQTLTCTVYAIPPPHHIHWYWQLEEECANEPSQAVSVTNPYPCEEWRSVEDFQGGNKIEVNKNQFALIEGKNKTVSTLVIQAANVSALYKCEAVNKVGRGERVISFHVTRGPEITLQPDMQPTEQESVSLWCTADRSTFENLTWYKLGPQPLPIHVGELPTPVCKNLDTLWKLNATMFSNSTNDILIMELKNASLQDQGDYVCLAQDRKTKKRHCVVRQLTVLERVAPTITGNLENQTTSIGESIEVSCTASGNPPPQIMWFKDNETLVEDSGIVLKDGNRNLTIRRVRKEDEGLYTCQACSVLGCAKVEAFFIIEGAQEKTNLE

B1: SEQ ID NO:310 (peptide)
peptide: AQDWYYDEILSMADQLRHAFLSGGGK
modifications: N-acetyl; C-terminal amide; fluorescein on C-terminal Lys in FP only
B2: SEQ ID NO:264 (peptide)
peptide: AGPKWCEEDWYYCMITGTGGGK
modifications: N-acetyl; C-terminal amide; fluorescein on C-terminal Lys in FP only
B3: SEQ ID NO:294 (peptide)
peptide: GDSRVCWEDSWGGEVCFRYDPGGGK
modifications: N-acetyl; C-terminal amide; fluorescein on C-terminal Lys in FP only

Columns and labels:
[1] = molecular target: T1, human KDR-Fc chimeric fusion (R&D Systems #357-KD-05) (human, UniProt P35968 20-764); experiment: said to be measured by FP against the KDRFc construct (Table 8 has 0.05 µM under BiaKD)
T1 construct: bought; also called KDR Fc fusion

[2] = molecular target: T1, human KDR-Fc chimeric fusion (R&D …); experiment: fluorescence anisotropy, fluorescein-peptide + KDR-Fc

Binder	Kd [1] [nM]	Kd [2] [nM]
B1	51	
B2		280
B3		69
